Earlier results on one compound are cited in patent publication EP1079826B1, “USE OF INDIGOID BISINDOLE DERIVATIVES FOR THE MANUFACTURE OF A MEDICAMENT TO INHIBIT CYCLIN DEPENDENT KINASES” (CNRS, Centre National de la Recherche Scientifique, priority 1998, dated 1999).

Protein sequences, listed by entry. Tags and fused reporters are not part of them.
UniProt P11802, whole entry, species assumed: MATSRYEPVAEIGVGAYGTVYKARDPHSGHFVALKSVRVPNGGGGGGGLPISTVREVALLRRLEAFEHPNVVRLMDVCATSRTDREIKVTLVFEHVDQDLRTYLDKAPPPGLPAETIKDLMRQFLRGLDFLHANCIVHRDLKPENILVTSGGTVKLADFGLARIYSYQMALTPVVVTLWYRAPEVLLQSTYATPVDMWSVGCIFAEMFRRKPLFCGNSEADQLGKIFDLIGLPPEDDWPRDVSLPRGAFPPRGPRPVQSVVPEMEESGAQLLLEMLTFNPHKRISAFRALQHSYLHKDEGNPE

In this series the target is CDK4 (Homo sapiens, UniProt P11802). As to conditions: read-out: IC50 CDK4; Table 1, known inhibitors; cited from earlier work.

As for `Cn1cnc2c(NCc3ccccc3)nc(NCCO)nc21` [Olomoucin, olomoucine], the IC50 is over 1000 µM.
